The numbers were not newly measured in patent publication US20250064843A1, “METHOD AND MEDICAMENT FOR TREATING AMYOTROPHIC LATERAL SCLEROSIS” (4B TECHNOLOGIES (BEIJING) CO., LIMITED, priority 2021, published 2025), which cites them from elsewhere.

The structures appear in SMILES notation.

This data set relates to ALS patients.

Turning to `Nc1nc2ccc(OC(F)(F)F)cc2s1` [riluzole], the extending survival was 2-3 months.
